Publication PMC10763724 (Molecular cancer therapeutics, 2019)

Amino acid sequences for entries named in this document (tags omitted). A change or cut given only in a name is not applied to a line headed by its entry.
UniProt P00352: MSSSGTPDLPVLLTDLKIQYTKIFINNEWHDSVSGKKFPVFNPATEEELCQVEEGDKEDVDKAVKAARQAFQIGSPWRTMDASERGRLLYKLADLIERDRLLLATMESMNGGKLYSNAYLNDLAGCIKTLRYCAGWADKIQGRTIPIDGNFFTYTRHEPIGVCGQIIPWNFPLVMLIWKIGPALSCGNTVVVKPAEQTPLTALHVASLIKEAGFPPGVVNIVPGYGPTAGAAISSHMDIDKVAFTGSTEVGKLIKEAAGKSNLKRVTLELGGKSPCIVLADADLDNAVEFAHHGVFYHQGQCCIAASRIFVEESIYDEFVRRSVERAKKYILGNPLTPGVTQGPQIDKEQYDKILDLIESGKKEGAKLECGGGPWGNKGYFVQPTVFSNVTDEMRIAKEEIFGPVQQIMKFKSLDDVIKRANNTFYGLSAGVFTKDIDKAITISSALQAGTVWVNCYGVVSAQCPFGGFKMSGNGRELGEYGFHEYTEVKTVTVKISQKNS

Key:
Format in all cases: biochemical
ALDH3A1 = biological target: T1, ALDH3A1 (Homo sapiens, UniProt P30838); test: ALDH3A1 isoform-specific enzyme assay; conditions: read-out: IC50s ALDH3A1; 4-nitrobenzaldehyde substrate, 15 minutes preincubation
T1 sequence (P30838 1-453): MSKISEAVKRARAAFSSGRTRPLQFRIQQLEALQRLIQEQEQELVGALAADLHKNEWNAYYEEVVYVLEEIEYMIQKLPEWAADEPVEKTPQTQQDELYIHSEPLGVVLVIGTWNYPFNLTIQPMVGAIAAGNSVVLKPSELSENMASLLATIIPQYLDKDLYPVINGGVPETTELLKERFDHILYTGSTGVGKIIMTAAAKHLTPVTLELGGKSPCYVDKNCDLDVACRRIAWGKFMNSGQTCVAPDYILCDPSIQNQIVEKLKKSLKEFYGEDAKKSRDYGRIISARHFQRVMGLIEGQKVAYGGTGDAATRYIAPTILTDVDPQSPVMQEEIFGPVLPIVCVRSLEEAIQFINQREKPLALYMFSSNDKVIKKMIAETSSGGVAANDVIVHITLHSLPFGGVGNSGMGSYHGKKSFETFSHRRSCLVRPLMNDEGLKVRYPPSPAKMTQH

ALDH1A1 = ALDH1A1 (Homo sapiens, UniProt P00352); test: ALDH1A1 isoform-specific enzyme assay; conditions: read-out: IC50s ALDH1A1; propionaldehyde substrate, 15 minutes preincubation
ALDH2 = biological target: T2, ALDH2 (Homo sapiens, UniProt P05091); test: ALDH2 isoform-specific enzyme assay; conditions: read-out: IC50s ALDH2; acetaldehyde substrate, 15 minutes preincubation
T2 sequence (P05091 18-517): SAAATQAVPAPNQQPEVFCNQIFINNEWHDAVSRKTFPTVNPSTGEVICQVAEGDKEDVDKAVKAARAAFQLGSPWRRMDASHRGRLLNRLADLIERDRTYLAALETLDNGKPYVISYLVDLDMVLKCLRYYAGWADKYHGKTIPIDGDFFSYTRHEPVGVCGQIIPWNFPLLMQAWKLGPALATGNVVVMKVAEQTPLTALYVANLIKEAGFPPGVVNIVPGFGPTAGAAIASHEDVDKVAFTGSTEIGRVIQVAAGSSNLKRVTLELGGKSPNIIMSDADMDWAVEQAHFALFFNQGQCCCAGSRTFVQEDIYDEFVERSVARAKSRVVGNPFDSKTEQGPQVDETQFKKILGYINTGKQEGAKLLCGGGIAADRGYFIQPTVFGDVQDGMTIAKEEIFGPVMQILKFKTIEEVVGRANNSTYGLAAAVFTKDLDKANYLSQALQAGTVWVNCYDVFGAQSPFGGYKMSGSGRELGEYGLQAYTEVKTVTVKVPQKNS

IC50 (ALDH3A1): 2720 nM
IC50 (ALDH1A1): 2430 nM
IC50 (ALDH2): 53 ± 2 nM
Substance: CVT10216
